Tests used:
Test in all cases: not stated (summary of nonclinical pharmacology)
mature human thrombin = mature human thrombin (human, UniProt P00734 314-363; P00734 364-622)
monkey thrombin = monkey thrombin (monkey)
mouse thrombin = mouse thrombin (mouse, UniProt P19221 312-618)

Kd (mature human thrombin): < 2 nM
Kd (monkey thrombin): < 2 nM
Kd (mouse thrombin): < 2 nM
B1: JNJ-64179375, recombinant fully human IgG4 monoclonal anti-thrombin (exosite 1) antibody (antibody, V domains shown)
VH: QVQLIQSGSAVKKPGASVRVSCKVSGYTLTEAAIHWVRQAPGKGLEWMGGLDPQDGETVYAQQFKGRVTMTEDRSTDTAYMEVNNLRSEDTATYYCTTGDFSEFEPFSMDYFHFWGQGTVVTVAS
VL: EIVLTQSPATLSLSPGERATLSCRASQNVASFLAWYQHKPGQAPRLLIYDASSRATDIPIRFSGSGSGTDFTLTISGLEPEDFAVYYCQQRRSWPPLTFGGGTKVEIKR

From patent WO2019030706A1 (dated 2019)
